Target: T1, 5-hydroxytryptamine receptor 2C (Rattus norvegicus, UniProt P08909)
T1 sequence (P08909 whole entry): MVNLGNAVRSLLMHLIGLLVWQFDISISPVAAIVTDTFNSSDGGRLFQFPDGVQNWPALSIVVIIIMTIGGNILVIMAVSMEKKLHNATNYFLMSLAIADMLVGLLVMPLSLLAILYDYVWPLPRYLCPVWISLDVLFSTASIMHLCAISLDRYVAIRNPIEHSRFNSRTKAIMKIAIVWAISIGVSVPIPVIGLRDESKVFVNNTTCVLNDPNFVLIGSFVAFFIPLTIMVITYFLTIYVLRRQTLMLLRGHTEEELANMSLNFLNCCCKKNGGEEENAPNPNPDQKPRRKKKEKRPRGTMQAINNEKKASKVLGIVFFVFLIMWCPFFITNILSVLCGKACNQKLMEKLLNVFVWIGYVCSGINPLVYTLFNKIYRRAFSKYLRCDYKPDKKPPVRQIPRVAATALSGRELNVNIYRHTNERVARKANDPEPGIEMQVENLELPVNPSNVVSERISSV

Compound `O=C(CCCN1C2CCC1CC(O)(c1ccc(Cl)cc1)C2)c1ccc(F)cc1` (stereo unspecified) has a Ki of 872 nM.

Reference: ChEMBL document CHEMBL3352364 (Bioorg Med Chem Lett, 2014)
